Measured values: ChEMBL document CHEMBL4834486 (Bioorg Med Chem, 2021)

Legend:
MCF7 = experiment: Antiproliferative activity against human MCF7 cells assessed as inhibition of cell proliferation measured after 72 hrs by CCK-8 assay
MCF-10A = experiment: Cytotoxicity against human MCF-10A cells assessed as inhibition of cell proliferation measured after 72 hrs by CCK-8 assay; type: cell-based
MDA-MB-231 = experiment: Antiproliferative activity against human MDA-MB-231 cells assessed as inhibition of cell proliferation measured after 72 hrs by CCK-8 assay

## O=C(O)c1ccc(N(CCCl)CCCl)cc1
MCF7
  IC50: > 20 µM
MCF-10A
  IC50: > 40 µM
MDA-MB-231
  IC50: > 20 µM
